Reference: patent publication US8367121B2, “Nutraceutical agent for attenuating the neurodegenerative process associated with Parkinson's disease” (Florida A & M University, priority 2005, dated 2013)

Tested on: MPP+ toxicity
Assay: MPP+ toxicity in vitro (loss of ATP / cell death)
Assay type: cell-based

OCCN(CCO)c1nc(N2CCCCC2)c2nc(N(CCO)CCO)nc(N3CCCCC3)c2n1 [DIPYRIMADOLE, reference compound]
protection against MPP+ toxicity: effective
